The results in this text go back to patent US20140100156A1 (SANOFI, priority 2012, published 2014).

Sequences of proteins named here, by UniProt entry; tags and fusion partners are left off. Residues count along the entry.
UniProt P43220, 24-463: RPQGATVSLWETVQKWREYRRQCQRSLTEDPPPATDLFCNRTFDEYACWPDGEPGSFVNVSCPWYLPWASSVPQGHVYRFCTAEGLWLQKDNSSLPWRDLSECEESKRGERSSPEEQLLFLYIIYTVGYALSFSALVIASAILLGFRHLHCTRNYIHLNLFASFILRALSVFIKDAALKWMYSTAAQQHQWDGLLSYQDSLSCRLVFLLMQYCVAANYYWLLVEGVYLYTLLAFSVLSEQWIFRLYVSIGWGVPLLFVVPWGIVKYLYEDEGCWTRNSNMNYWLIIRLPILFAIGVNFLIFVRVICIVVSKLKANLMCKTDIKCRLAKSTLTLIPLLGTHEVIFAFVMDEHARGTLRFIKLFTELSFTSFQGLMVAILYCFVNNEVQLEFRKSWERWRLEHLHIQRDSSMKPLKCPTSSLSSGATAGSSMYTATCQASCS
UniProt P47871, 26-477: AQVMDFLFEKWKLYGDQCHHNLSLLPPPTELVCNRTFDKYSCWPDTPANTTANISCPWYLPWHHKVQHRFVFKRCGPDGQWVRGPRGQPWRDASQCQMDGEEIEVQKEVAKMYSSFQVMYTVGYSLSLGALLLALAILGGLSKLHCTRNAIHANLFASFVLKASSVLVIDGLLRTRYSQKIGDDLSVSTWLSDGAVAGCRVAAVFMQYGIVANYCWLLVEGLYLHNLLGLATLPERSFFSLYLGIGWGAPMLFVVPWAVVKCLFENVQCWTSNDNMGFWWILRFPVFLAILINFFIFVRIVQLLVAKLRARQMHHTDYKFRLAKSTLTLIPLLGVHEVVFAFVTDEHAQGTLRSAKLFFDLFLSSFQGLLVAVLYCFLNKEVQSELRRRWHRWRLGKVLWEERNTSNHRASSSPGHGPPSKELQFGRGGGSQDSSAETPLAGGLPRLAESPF

A word on the pEC50: it is the negative decadic logarithm of the EC50, by convention in mol/L.

Each structure is given as a SMILES string. pEC50: −log10 of the molar value. Where two headings read alike, the source gives them in different places.

For one assay, the target named is T1, human GLP-1 receptor (Homo sapiens, UniProt P43220).
T1 construct: expressed in transfected cells; host or cells: HEK-293
Nature of the assay: cAMP response (HTRF) of HEK-293 cells stably expressing human GLP-1 receptor. The class given is cell-based. The following applies: read-out: EC50 hGLP-1R. For orientation: Time-resolved FRET reads energy transfer from a long-lived donor to a nearby acceptor.

A further assay has as its target T2, human glucagon receptor (Homo sapiens, UniProt P47871).
T2 construct: expressed in transfected cells; host or cells: HEK-293
The experiment in a line: cAMP response (HTRF) of HEK-293 cells stably expressing human glucagon receptor. In kind it is cell-based. The settings on record: read-out: EC50 hGlucagon-R.

Setting [1] is: Table 8, comparison testing of position 14.

`CCCCCCCCCCCCCCCC(=O)N[C@@H](CCC(=O)NCCCC[C@H](NC(=O)[C@H](CCC(N)=O)NC(=O)[C@H](CCCCN)NC(=O)[C@H](CO)NC(=O)[C@H](CC(C)C)NC(=O)[C@H](CC(=O)O)NC(=O)[C@H](CO)NC(=O)[C@@H](NC(=O)[C@H](Cc1ccccc1)NC(=O)[C@@H](NC(=O)CNC(=O)[C@H](CCC(N)=O)NC(=O)[C@@H](CO)NC(=O)[C@@H](N)Cc1c[nH]cn1)[C@@H](C)O)[C@@H](C)O)C(=O)N[C@@H](CC(=O)O)C(=O)N[C@@H](CO)C(=O)N[C@@H](CCCNC(=N)N)C(=O)N[C@@H](CCCNC(=N)N)C(=O)N[C@@H](C)C(=O)N[C@@H](CCC(N)=O)C(=O)N[C@@H](CC(=O)O)C(=O)N[C@@H](Cc1ccccc1)C(=O)N[C@H](C(=O)N[C@@H](CCC(=O)O)C(=O)N[C@@H](Cc1c[nH]c2ccccc12)C(=O)N[C@@H](CC(C)C)C(=O)N[C@@H](CCCCN)C(=O)N[C@@H](CCCNC(=N)N)C(=O)NCC(=O)NCC(=O)N1CCC[C@H]1C(=O)N[C@@H](CO)C(=O)N[C@@H](CO)C(=O)NCC(=O)N[C@@H](C)C(=O)N1CCC[C@H]1C(=O)N1CCC[C@H]1C(=O)N1CCC[C@H]1C(=O)N[C@@H](CO)C(N)=O)[C@@H](C)CC)C(=O)O` [compound 125]: the pEC50 on human GLP-1 receptor (Table 5, cAMP, HEK-293) is 10.50; on human glucagon receptor (Table 5, cAMP, HEK-293), 11.16.
The matching figures for `CCCCCCCCCCCCCCCCCC(=O)N[C@@H](CCC(=O)NCCCC[C@H](NC(=O)[C@H](CCC(N)=O)NC(=O)[C@H](CCCCN)NC(=O)[C@H](CO)NC(=O)[C@H](CC(C)C)NC(=O)[C@H](CC(=O)O)NC(=O)[C@H](CO)NC(=O)[C@@H](NC(=O)[C@H](Cc1ccccc1)NC(=O)[C@@H](NC(=O)CNC(=O)[C@H](Cc1c[nH]cn1)NC(=O)[C@@H](CO)NC(=O)[C@@H](N)Cc1c[nH]cn1)[C@@H](C)O)[C@@H](C)O)C(=O)N[C@@H](CCC(=O)O)C(=O)N[C@@H](CCC(=O)O)C(=O)N[C@@H](CCC(=O)O)C(=O)N[C@@H](C)C(=O)N[C@@H](C)C(=O)N[C@@H](CCCNC(=N)N)C(=O)N[C@@H](CC(C)C)C(=O)N[C@@H](Cc1ccccc1)C(=O)N[C@H](C(=O)N[C@@H](CCC(=O)O)C(=O)N[C@@H](Cc1c[nH]c2ccccc12)C(=O)N[C@@H](CC(C)C)C(=O)N[C@@H](CCCCN)C(=O)N[C@@H](C)C(=O)NCC(=O)NCC(=O)N1CCC[C@H]1C(=O)N[C@@H](CO)C(=O)N[C@@H](CO)C(=O)NCC(=O)N[C@@H](C)C(=O)N1CCC[C@H]1C(=O)N1CCC[C@H]1C(=O)N1CCC[C@H]1C(=O)N[C@@H](CO)C(N)=O)[C@@H](C)CC)C(=O)O` [compound 219]: 11.68 and 11.43.
In the case of `CC[C@H](C)[C@H](NC(=O)[C@H](Cc1ccccc1)NC(=O)[C@H](CC(=O)O)NC(=O)C(C)(C)NC(=O)[C@H](C)NC(=O)[C@H](CCCNC(=N)N)NC(=O)[C@H](CCCNC(=N)N)NC(=O)[C@H](CO)NC(=O)[C@H](CCC(=O)O)NC(=O)[C@H](CCSC)NC(=O)[C@H](CCC(N)=O)NC(=O)[C@H](CCCCN)NC(=O)[C@H](CO)NC(=O)[C@H](CC(C)C)NC(=O)[C@H](CC(=O)O)NC(=O)[C@H](CO)NC(=O)[C@@H](NC(=O)[C@H](Cc1ccccc1)NC(=O)[C@@H](NC(=O)CNC(=O)[C@H](CCC(N)=O)NC(=O)[C@@H](CO)NC(=O)[C@@H](N)Cc1c[nH]cn1)[C@@H](C)O)[C@@H](C)O)C(=O)N[C@@H](CCC(=O)O)C(=O)N[C@@H](Cc1c[nH]c2ccccc12)C(=O)N[C@@H](CC(C)C)C(=O)N[C@@H](CCCCN)C(=O)N[C@@H](C)C(=O)NCC(=O)NCC(=O)N1CCC[C@H]1C(=O)N[C@@H](CO)C(=O)N[C@@H](CO)C(=O)NCC(=O)N[C@@H](C)C(=O)N1CCC[C@H]1C(=O)N1CCC[C@H]1C(=O)N1CCC[C@H]1C(=O)N[C@@H](CO)C(N)=O` [compound 190], the results for the pEC50 on human GLP-1 receptor (setting [1]) and at human glucagon receptor (setting [1]) were 10.67 and 8.81, respectively.
Regarding `CCCCCCCCCCCCCCCC(=O)N[C@@H](CCC(=O)NCCCC[C@H](NC(=O)[C@H](CCC(N)=O)NC(=O)[C@H](CCCCN)NC(=O)[C@H](CO)NC(=O)[C@H](CC(C)C)NC(=O)[C@H](CC(=O)O)NC(=O)[C@H](CO)NC(=O)[C@@H](NC(=O)[C@H](Cc1ccccc1)NC(=O)[C@@H](NC(=O)CNC(=O)[C@H](CCC(N)=O)NC(=O)[C@@H](CO)NC(=O)[C@@H](N)Cc1c[nH]cn1)[C@@H](C)O)[C@@H](C)O)C(=O)N[C@@H](CC(=O)O)C(=O)N[C@@H](CO)C(=O)N[C@@H](CCC(N)=O)C(=O)N[C@@H](C)C(=O)N[C@@H](C)C(=O)N[C@@H](CCC(N)=O)C(=O)N[C@@H](CC(=O)O)C(=O)N[C@@H](Cc1ccccc1)C(=O)N[C@H](C(=O)N[C@@H](CCC(=O)O)C(=O)N[C@@H](Cc1c[nH]c2ccccc12)C(=O)N[C@@H](CC(C)C)C(=O)N[C@@H](CCCCN)C(=O)N[C@@H](CC(N)=O)C(=O)N[C@H](C(=O)NCC(=O)N1CCC[C@H]1C(=O)N[C@@H](CO)C(=O)N[C@@H](CO)C(=O)NCC(=O)N[C@@H](C)C(=O)N1CCC[C@H]1C(=O)N1CCC[C@H]1C(=O)N1CCC[C@H]1C(=O)N[C@@H](CO)C(N)=O)[C@@H](C)O)[C@@H](C)CC)C(=O)O` [compound 86], the negative-log EC50 (pEC50) on human GLP-1 receptor (Table 5, cAMP, HEK-293) was 11.31; on human glucagon receptor (Table 5, cAMP, HEK-293), 11.46.
Turning to `CC[C@H](C)[C@H](NC(=O)[C@H](Cc1ccccc1)NC(=O)[C@H](CC(=O)O)NC(=O)[C@H](CCC(N)=O)NC(=O)[C@H](C)NC(=O)[C@H](CCCNC(=N)N)NC(=O)[C@H](CCCNC(=N)N)NC(=O)[C@H](CO)NC(=O)[C@H](CC(=O)O)NC(=O)[C@H](CCCCNC(=O)CC[C@H](NC(=O)CCCCCCCCCCC(=O)OCc1ccccc1)C(=O)O)NC(=O)[C@H](CCC(N)=O)NC(=O)[C@H](CCCCN)NC(=O)[C@H](CO)NC(=O)[C@H](CC(C)C)NC(=O)[C@H](CC(=O)O)NC(=O)[C@H](CO)NC(=O)[C@@H](NC(=O)[C@H](Cc1ccccc1)NC(=O)[C@@H](NC(=O)CNC(=O)[C@H](CCC(N)=O)NC(=O)[C@@H](CO)NC(=O)[C@@H](N)Cc1c[nH]cn1)[C@@H](C)O)[C@@H](C)O)C(=O)N[C@@H](CCC(=O)O)C(=O)N[C@@H](Cc1c[nH]c2ccccc12)C(=O)N[C@@H](CC(C)C)C(=O)N[C@@H](CCCCN)C(=O)N[C@@H](CC(N)=O)C(=O)NCC(=O)NCC(=O)N1CCC[C@H]1C(=O)N[C@@H](CO)C(=O)N[C@@H](CO)C(=O)NCC(=O)N[C@@H](C)C(=O)N1CCC[C@H]1C(=O)N1CCC[C@H]1C(=O)N1CCC[C@H]1C(=O)N[C@@H](CO)C(N)=O` [compound 91], the negative-log EC50 (pEC50) on human GLP-1 receptor (Table 5, cAMP, HEK-293) is 10.82; at human glucagon receptor (Table 5, cAMP, HEK-293), 11.05.
The matching figures for `CCCCCCCCCCCCCCCCCC(=O)N[C@@H](CCC(=O)NCCCC[C@H](NC(=O)[C@H](CCC(N)=O)NC(=O)[C@H](CCCCN)NC(=O)[C@H](CO)NC(=O)[C@H](CC(C)C)NC(=O)[C@H](CC(=O)O)NC(=O)[C@H](CO)NC(=O)[C@@H](NC(=O)[C@H](Cc1ccccc1)NC(=O)[C@@H](NC(=O)CNC(=O)[C@H](CCC(N)=O)NC(=O)C(C)(C)NC(=O)[C@@H](N)Cc1c[nH]cn1)[C@@H](C)O)[C@@H](C)O)C(=O)N[C@@H](CC(=O)O)C(=O)N[C@@H](CO)C(=O)N[C@@H](CCC(N)=O)C(=O)N[C@@H](C)C(=O)N[C@@H](C)C(=O)N[C@@H](CCC(N)=O)C(=O)N[C@@H](CC(=O)O)C(=O)N[C@@H](Cc1ccccc1)C(=O)N[C@H](C(=O)N[C@@H](CCC(=O)O)C(=O)N[C@@H](Cc1c[nH]c2ccccc12)C(=O)N[C@@H](CC(C)C)C(=O)N[C@@H](CCCCN)C(=O)N[C@@H](C)C(=O)NCC(=O)NCC(=O)N1CCC[C@H]1C(=O)N[C@@H](CO)C(=O)N[C@@H](CO)C(=O)NCC(=O)N[C@@H](C)C(=O)N1CCC[C@H]1C(=O)N1CCC[C@H]1C(=O)N1CCC[C@H]1C(=O)N[C@@H](CO)C(N)=O)[C@@H](C)CC)C(=O)O` [compound 156]: 11.54 and 10.90.
For the compound `CCCCCCCCCCCCCCCC(=O)N[C@@H](CCC(=O)N[C@@H](CCC(=O)NCCCC[C@H](NC(=O)[C@H](CCC(N)=O)NC(=O)[C@H](CCCCN)NC(=O)[C@H](CO)NC(=O)[C@H](CC(C)C)NC(=O)[C@H](CC(=O)O)NC(=O)[C@H](CO)NC(=O)[C@@H](NC(=O)[C@H](Cc1ccccc1)NC(=O)[C@@H](NC(=O)CNC(=O)[C@H](CCC(N)=O)NC(=O)[C@@H](CO)NC(=O)[C@@H](N)Cc1c[nH]cn1)[C@@H](C)O)[C@@H](C)O)C(=O)N[C@@H](CC(=O)O)C(=O)N[C@@H](CO)C(=O)N[C@@H](CCCCN)C(=O)N[C@@H](C)C(=O)N[C@@H](C)C(=O)N[C@@H](CCC(N)=O)C(=O)N[C@@H](CC(=O)O)C(=O)N[C@@H](Cc1ccccc1)C(=O)N[C@H](C(=O)N[C@@H](CCC(=O)O)C(=O)N[C@@H](Cc1c[nH]c2ccccc12)C(=O)N[C@@H](CC(C)C)C(=O)N[C@@H](CCCCN)C(=O)N[C@@H](C)C(=O)NCC(=O)NCC(=O)N1CCC[C@H]1C(=O)N[C@@H](CO)C(=O)N[C@@H](CO)C(=O)NCC(=O)N[C@@H](C)C(=O)N1CCC[C@H]1C(=O)N1CCC[C@H]1C(=O)N1CCC[C@H]1C(=O)N[C@@H](CO)C(N)=O)[C@@H](C)CC)C(=O)O)C(=O)O` [compound 140], the pEC50 is 11.89 on human GLP-1 receptor (Table 5, cAMP, HEK-293) and 11.82 at human glucagon receptor (Table 5, cAMP, HEK-293).
Turning to `CCCCCCCCCCCCCCCC(=O)NCCCC[C@H](NC(=O)[C@H](CCC(N)=O)NC(=O)[C@H](CCCCN)NC(=O)[C@H](CO)NC(=O)[C@H](CC(C)C)NC(=O)[C@H](CC(=O)O)NC(=O)[C@H](CO)NC(=O)[C@@H](NC(=O)[C@H](Cc1ccccc1)NC(=O)[C@@H](NC(=O)CNC(=O)[C@H](CCC(N)=O)NC(=O)[C@@H](CO)NC(=O)[C@@H](N)Cc1c[nH]cn1)[C@@H](C)O)[C@@H](C)O)C(=O)N[C@@H](CCC(=O)O)C(=O)N[C@@H](CO)C(=O)N[C@@H](CCCNC(=N)N)C(=O)N[C@@H](CCCNC(=N)N)C(=O)N[C@@H](C)C(=O)N[C@@H](CCC(N)=O)C(=O)N[C@@H](CC(C)C)C(=O)N[C@@H](Cc1ccccc1)C(=O)N[C@H](C(=O)N[C@@H](CCC(=O)O)C(=O)N[C@@H](Cc1c[nH]c2ccccc12)C(=O)N[C@@H](CC(C)C)C(=O)N[C@@H](CCCCN)C(=O)N[C@@H](C)C(=O)NCC(=O)NCC(=O)N1CCC[C@H]1C(=O)N[C@@H](CO)C(=O)N[C@@H](CO)C(=O)NCC(=O)N[C@@H](C)C(=O)N1CCC[C@H]1C(=O)N1CCC[C@H]1C(=O)N1CCC[C@H]1C(=O)N[C@@H](CO)C(N)=O)[C@@H](C)CC` [compound 69], the pEC50 is 10.35 at human GLP-1 receptor (Table 5, cAMP, HEK-293) and 10.28 on human glucagon receptor (Table 5, cAMP, HEK-293).
